Among the data in patent US4110536A, “Derivatives of 5-(indol-3-yl)hydantoin” (Miles Laboratories, Inc., priority 1977, dated 1978) are LD50 and selectivity ratio values, retold here.

The series is described as follows: in vivo. Conditions: mouse, ip.

What is called LD50 is the dose at which mortality reaches 50%. The low end stands for a more toxic substance, the high end for a less toxic substance. `O=C1NC(=O)C(c2ccccc2)(c2ccccc2)N1` [III, 5,5-diphenyl-2,4-imidazolidinedione, reference compound]: the LD50 at 48 h stood at 95 mg/kg and the selectivity ratio amounted to 0.8.
